Curated experimental data: logP (octanol/water) values

From the experimental data distributed with OPERA 2.9.

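The numbers are reported measurements, compiled and curated for the OPERA QSAR suite. The files give a single number for a compound and property, which may rest on several reports. Method, purity and exact conditions of the single measurements are not given. A value may pool stereoisomers or salt forms, and the file does not say which form was measured. Some entries may be limits or estimates that an upstream database listed as plain numbers.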

logP is the log10 of the octanol-water partition coefficient; higher is more lipophilic.
The databases behind each value are named after "via".

OCCCCCCc1ccccc1 [Benzenehexanol] has logP (octanol/water) 3.29 (via OCHEM). O=P([O-])([O-])OCC(O)CO.[Mg+2] (configuration not stated) [Magnesium 2,3-dihydroxypropyl phosphate] is reported with logP (octanol/water) -1.7 (via eChemPortal). The entry for N=C(NO)c1ccccc1 [N-Hydroxybenzenecarboximidamide] lists logP (octanol/water) 1.48 (via eChemPortal). Clc1cc(Cl)c(-c2cc(Cl)c(Cl)c(Cl)c2Cl)c(Cl)c1 [2,2',3,4,4',5,6'-Heptachlorobiphenyl] has logP (octanol/water) 7.2 (via OCHEM). Listed for CCCCOc1cccc2ccccc12 [1-Butoxynaphthalene]: logP (octanol/water) 5.24 (via OCHEM). Listed for O=C(NC1CCCCC1)NC1CCCCC1 [1,3-Dicyclohexylurea]: logP (octanol/water) 3.33 (via OCHEM).

Listed for O=C(CO)c1ccccc1 [Ethanone, 2-hydroxy-1-phenyl-]: logP (octanol/water) 1.92 (via OCHEM). Cc1ncc(C[n+]2csc(CCOP(=O)(O)O)c2C)c(N)n1 [Monophosphothiamine parent] has logP (octanol/water) -3.1 (via eChemPortal). Listed for CCCCCCCCCN [Nonylamine]: logP (octanol/water) 3.57 (via OCHEM). O=S1(=O)OCCCO1 [1,3,2-Dioxathiane, 2,2-dioxide] has logP (octanol/water) 0.06 (via eChemPortal). The entry for CC1(C)C(=O)N(Cl)C(=O)N1Br [1-Bromo-3-chloro-5,5-dimethylhydantoin] lists logP (octanol/water) 0.35 (via PubChem). O=C(CC(=O)c1ccccc1)c1ccccc1 [1,3-Diphenyl-1,3-propanedione] is reported with logP (octanol/water) 4.59 (via eChemPortal).

Listed for O=c1nc(O)ccn1[C@@H]1O[C@H](CO)C[C@@H]1F: logP (octanol/water) -0.87 (via OCHEM). Listed for O=C(OCCOC(=O)c1ccc2c(c1)C(=O)OC2=O)c1ccc2c(c1)C(=O)OC2=O: logP (octanol/water) 3.33 (via eChemPortal). Listed for Cc1nn(-c2ccccc2)c(=O)[c-]1/N=N/c1cc([N+](=O)[O-])cc(S(=O)(=O)[O-])c1[O-].[Cr+3].[Na+].[OH-] [C.I. Acid Orange 74]: logP (octanol/water) -1.56 (via eChemPortal). Listed for Cc1cc(C)cc(N2C(=O)c3ccc4c5ccc6c7c(ccc(c8ccc(c3c48)C2=O)c75)C(=O)N(c2cc(C)cc(C)c2)C6=O)c1 [C.I. Pigment Red 149]: logP (octanol/water) 0.415 (via eChemPortal). Listed for CCN(c1ccccc1)S(=O)(=O)c1ccccc1/N=N/c1c(N)ccc2cc(S(=O)(=O)[O-])cc(O)c12.[Na+]: logP (octanol/water) -0.6 (via eChemPortal). O=[N+]([O-])c1ccc(C2CSCN2)cc1 (configuration not stated) [4-(4-Nitrophenyl)-1,3-thiazolidine] is reported with logP (octanol/water) 1.68 (via OCHEM).

Listed for CCO[Si](C)(C)C [Ethoxytrimethylsilane]: logP (octanol/water) 1.205 (via eChemPortal). O=C(O[C@H]1C[C@H]2CC3C[C@@H](C1)[N@@]2CC3=O)c1c[nH]c2ccccc12 [Dolasetron] is reported with logP (octanol/water) 2.1 (via PubChem). [Cu+2].[O-]c1ccccc1/N=C/c1c([O-])ccc2ccccc12 is reported with logP (octanol/water) 2.2 (via eChemPortal). Listed for COc1ccccc1N1CCN(CCNC(=O)c2ccncc2)CC1: logP (octanol/water) 1.2 (via OCHEM). Cc1ccccc1N=C(O)NN [N-(2-Methylphenyl)hydrazinecarboximidic acid] is reported with logP (octanol/water) 0.36 (via OCHEM). For Cc1ccc2nc(-c3ccc(NC(=O)/C(C#N)=C/c4ccc(N(C)CCS(=O)(=O)[O-])cc4)cc3)sc2c1S(=O)(=O)[O-].[Na+].[Na+] the data give logP (octanol/water) -4.02 (via eChemPortal).

The entry for CC(C)CCOC(=O)c1cc(=O)[nH]c(=O)[nH]1 lists logP (octanol/water) 1.48 (via OCHEM). Listed for CCCCCCCOC(=O)CCCCCCC [Heptyl octanoate]: logP (octanol/water) 6.11 (via OCHEM). CC(=O)[O-].CN(C)c1ccc(/C=C/C2=[N+](C)c3ccccc3C2(C)C)cc1 has logP (octanol/water) -0.705 (via eChemPortal). The entry for C1CN(CCOCCN2CCOCC2)CCO1 [4,4'-(Oxydiethylene)bis(morpholine)] lists logP (octanol/water) 0.5 (via eChemPortal). Listed for CC#CCn1c(N2CCC[C@@H](N3C(=O)c4ccccc4C3=O)C2)nc2c1c(=O)n(Cc1nc(C)c3ccccc3n1)c(=O)n2C: logP (octanol/water) 3.85 (via eChemPortal). CCCCCCCOC(=O)c1cc(=O)[nH]c(=O)[nH]1 [Heptyl 2,4-dioxo-1H-pyrimidine-6-carboxylate] is reported with logP (octanol/water) 2.15 (via OCHEM).

Listed for C[Si](C)(C)O[Si](C)(C)O[Si](C)(C)O[Si](C)(C)O[Si](C)(C)C [Dodecamethylpentasiloxane]: logP (octanol/water) 9.415 (via PubChem, eChemPortal). CC[N+](C)(CC)c1ccccc1.[I-] [N,N-Diethyl-N-methylanilinium iodide] has logP (octanol/water) -2.22 (via OCHEM). Listed for O=[N+]([O-])c1cccc2c(/N=N\c3c([O-])ccc4ccccc34)c([O-])cc(S(=O)(=O)[O-])c12.O=[N+]([O-])c1cccc2c(/N=N\c3c([O-])ccc4ccccc34)c([O-])cc(S(=O)(=O)[O-])c12.[Cr+3].[Na+].[Na+].[Na+] [C.I. Acid Black 172]: logP (octanol/water) -1.74 (via eChemPortal). For O=S(=O)(O)Nc1cccnc1 [N-3-Pyridinylsulfamic acid] the data give logP (octanol/water) -0.49 (via OCHEM). The entry for C=Cc1ccc(O)cc1 [4-Ethenyl-phenol] lists logP (octanol/water) 2.3 (via eChemPortal). O=[N+]([O-])c1ccc2c(/N=N/c3c([O-])ccc4ccccc34)c([O-])cc(S(=O)(=O)[O-])c2c1.O=[N+]([O-])c1ccc2c(/N=N/c3c([O-])ccc4ccccc34)c([O-])cc(S(=O)(=O)[O-])c2c1.[Cr+3].[Na+].[Na+].[Na+] [C.I. Acid Black 172] has logP (octanol/water) -1.74 (via eChemPortal).

The entry for CCCCC(CC)CNS(=O)(=O)c1ccc(N)cc1 (configuration not stated) [4-Amino-N-(2-ethylhexyl)benzene-1-sulfonamide] lists logP (octanol/water) 4.1 (via eChemPortal). Cc1nn(-c2ccccc2)c([O-])c1/N=N/c1cc(S(=O)(=O)[O-])cc(S(=O)(=O)[O-])c1[O-].[Cu+2].[Na+].[Na+] is reported with logP (octanol/water) -4.75 (via eChemPortal). CC(C)(C)CCCO [1-Pentanol, 4,4-dimethyl- (8CI)(9CI)] is reported with logP (octanol/water) 2.39 (via OCHEM). NCCS(=O)(=O)O [l-Taurine] is reported with logP (octanol/water) -1.3 (via eChemPortal). For CC(=O)N[C@@H](CC(N)=O)C(=O)O [N2-Acetyl-L-asparagine] the data give logP (octanol/water) -2.6 (via OCHEM). NCCCCCCN.O=C(O)c1ccc(C(=O)O)cc1 [Hexamethylene diamine terephthalate] has logP (octanol/water) 2 (via eChemPortal).

NCCCCC(N)C(=O)O.O=C(O)COc1nn(Cc2ccccc2)c2ccccc12 [[(1-Benzyl-1H-indazol-3-yl)oxy]acetic acid--lysine (1/1)] has logP (octanol/water) 0.196 (via eChemPortal). Nc1n[nH]c(-c2ccnc(NCCCc3ccccc3)c2)n1 has logP (octanol/water) 3.05 (via OCHEM). O=C(O)CCCCCCCCCCCCC(=O)O [Tetradecanedioic acid] has logP (octanol/water) 4.2 (via eChemPortal). CCCC[P+](CCCC)(CCCC)CCCC.[Br-] [Tetrabutylphosphonium bromide] is reported with logP (octanol/water) -0.04 (via eChemPortal). Listed for O=C(Nc1cc(S(=O)(=O)[O-])cc2cc(S(=O)(=O)[O-])c(/N=N/c3ccc4c(CNc5nc(F)nc(F)c5Cl)cccc4c3S(=O)(=O)[O-])c(O)c12)c1ccccc1.[Li+].[Na+].[Na+]: logP (octanol/water) -3.6 (via eChemPortal). CCCCCCCCCCCCCCCCSc1nc2ccc(S(=O)(=O)O)cc2[nH]1.[HH].[Na+] is reported with logP (octanol/water) 4.7 (via eChemPortal).

The entry for C[N+](C)(C)CC(O)CCl.[Cl-] (configuration not stated) [(3-Chloro-2-hydroxypropyl)trimethylammonium chloride] lists logP (octanol/water) -1.5 (via eChemPortal). For Nc1ccc(N(CCO)CCO)cc1.O=S(=O)(O)O [(p-Ammoniophenyl)bis(2-hydroxyethyl)ammonium sulphate] the data give logP (octanol/water) -2.8 (via eChemPortal). The entry for CN(C)c1nc(=O)nc(N(C)C)[nH]1 [4,6-Bis(dimethylamino)-1,3,5-triazin-2(1H)-one] lists logP (octanol/water) 2.29 (via OCHEM). CC1=C(C(=O)O)N2C(=O)[C@@H](NC(=O)[C@H](N)C3=CCC=CC3)[C@H]2SC1 [Cephradine] has logP (octanol/water) -1.5 (via PubChem). For CCCOCCO [2-Propoxyethanol] the data give logP (octanol/water) 0.08 (via PubChem). Listed for CCCCCCCCOC(=O)CCCCCC [Octyl heptanoate]: logP (octanol/water) 6.11 (via OCHEM).